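Method: 48-hour compound exposure of cells in 96-well plates, five concentrations, linear interpolation of endpoints. At the GI50, growth is halved. TGI marks complete inhibition of growth.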
Columns and labels:
Test in all cases: DTP human tumour cell line panel, 48 h
786-0 renal = test system: 786-0 renal
A498 renal = test system: A498 renal
A549 NSCLC = test system: A549 NSCLC
ACHN renal = test system: ACHN renal
CAKI-1 renal = test system: CAKI-1 renal
CCRF-CEM leukemia = test system: CCRF-CEM leukemia
COLO 205 colon = test system: COLO 205 colon
DU-145 prostate = test system: DU-145 prostate
EKVX NSCLC = test system: EKVX NSCLC
HCC-2998 colon = test system: HCC-2998 colon
HCT-116 colon = test system: HCT-116 colon
HCT-15 colon = test system: HCT-15 colon
HL-60(TB) leukemia = test system: HL-60(TB) leukemia
HOP-62 NSCLC = test system: HOP-62 NSCLC
HOP-92 NSCLC = test system: HOP-92 NSCLC
HT29 colon = test system: HT29 colon
IGROV1 ovarian = test system: IGROV1 ovarian
K-562 leukemia = test system: K-562 leukemia
KM12 colon = test system: KM12 colon
M14 melanoma = test system: M14 melanoma
MALME-3M melanoma = test system: MALME-3M melanoma
MDA-MB-231 breast = test system: MDA-MB-231 breast
MDA-MB-435 = test system: MDA-MB-435
MOLT-4 leukemia = test system: MOLT-4 leukemia
NCI-H23 lung = test system: NCI-H23 lung
NCI-H322M lung = test system: NCI-H322M lung
NCI-H460 lung = test system: NCI-H460 lung
NCI-H522 lung = test system: NCI-H522 lung
NCI/ADR-RES ovarian = test system: NCI/ADR-RES ovarian
OVCAR-3 ovarian = test system: OVCAR-3 ovarian
OVCAR-4 ovarian = test system: OVCAR-4 ovarian
OVCAR-5 ovarian = test system: OVCAR-5 ovarian
PC-3 prostate = test system: PC-3 prostate
RPMI-8226 leukemia = test system: RPMI-8226 leukemia
RXF 393 renal = test system: RXF 393 renal
SF-268 CNS = test system: SF-268 CNS
SF-295 CNS = test system: SF-295 CNS
SF-539 CNS = test system: SF-539 CNS
SK-MEL-28 melanoma = test system: SK-MEL-28 melanoma
SK-OV-3 ovarian = test system: SK-OV-3 ovarian
SN12C renal = test system: SN12C renal
SNB-19 CNS = test system: SNB-19 CNS
SNB-75 CNS = test system: SNB-75 CNS
SR leukemia = test system: SR leukemia
T-47D breast = test system: T-47D breast
TK-10 renal = test system: TK-10 renal
UACC-257 melanoma = test system: UACC-257 melanoma
UACC-62 melanoma = test system: UACC-62 melanoma
UO-31 renal = test system: UO-31 renal

## CCC[As](CCC)SCC(O)CO (stereo not drawn)
786-0 renal
  GI50: 68.8 nM
  TGI: 203 nM
A498 renal
  GI50: 302 nM
  TGI: 1020 nM
A549 NSCLC
  GI50: 628 nM
  TGI: 2530 nM
ACHN renal
  GI50: 57.5 nM
  TGI: 183 nM
CAKI-1 renal
  GI50: 220 nM
  TGI: 455 nM
CCRF-CEM leukemia
  GI50: 53.1 nM
  TGI: > 100000 nM
COLO 205 colon
  GI50: 173 nM
  TGI: > 100000 nM
DU-145 prostate
  GI50: 196 nM
  TGI: 397 nM
EKVX NSCLC
  GI50: 619 nM
  TGI: 1560 nM
HCC-2998 colon
  GI50: 381 nM
  TGI: 1070 nM
HCT-116 colon
  GI50: 167 nM
  TGI: 5030 nM
HCT-15 colon
  GI50: 22.6 nM
  TGI: 79.9 nM
HL-60(TB) leukemia
  GI50: 82.6 nM
  TGI: 2680 nM
HOP-62 NSCLC
  GI50: 325 nM
  TGI: 1470 nM
HOP-92 NSCLC
  GI50: 15.7 nM
  TGI: 51.3 nM
HT29 colon
  GI50: 293 nM
  TGI: > 100000 nM
IGROV1 ovarian
  GI50: 40.6 nM
  TGI: > 100000 nM
K-562 leukemia
  GI50: 45.1 nM
  TGI: 3730 nM
KM12 colon
  GI50: 333 nM
  TGI: 1210 nM
M14 melanoma
  GI50: 170 nM
  TGI: 638 nM
MALME-3M melanoma
  GI50: 222 nM
  TGI: 531 nM
MDA-MB-231 breast
  GI50: 169 nM
  TGI: 357 nM
MDA-MB-435
  GI50: 259 nM
  TGI: 949 nM
MOLT-4 leukemia
  GI50: 108 nM
  TGI: 5780 nM
NCI-H23 lung
  GI50: 387 nM
  TGI: 5800 nM
NCI-H322M lung
  GI50: 1540 nM
  TGI: 3120 nM
NCI-H460 lung
  GI50: 1440 nM
  TGI: 3460 nM
NCI-H522 lung
  GI50: 24.5 nM
  TGI: 54.1 nM
NCI/ADR-RES ovarian
  GI50: 219 nM
  TGI: 487 nM
OVCAR-3 ovarian
  GI50: 373 nM
  TGI: > 100000 nM
OVCAR-4 ovarian
  GI50: 206 nM
  TGI: 596 nM
OVCAR-5 ovarian
  GI50: 1390 nM
  TGI: 3290 nM
PC-3 prostate
  GI50: 132 nM
  TGI: 634 nM
RPMI-8226 leukemia
  GI50: 182 nM
  TGI: 668 nM
RXF 393 renal
  GI50: 38.9 nM
  TGI: 161 nM
SF-268 CNS
  GI50: 211 nM
  TGI: 551 nM
SF-295 CNS
  GI50: 1960 nM
  TGI: 4140 nM
SF-539 CNS
  GI50: 234 nM
  TGI: 603 nM
SK-MEL-28 melanoma
  GI50: 140 nM
  TGI: 437 nM
SK-OV-3 ovarian
  GI50: 319 nM
  TGI: 974 nM
SN12C renal
  GI50: 175 nM
  TGI: 313 nM
SNB-19 CNS
  GI50: 477 nM
  TGI: 2890 nM
SNB-75 CNS
  GI50: 181 nM
  TGI: 651 nM
SR leukemia
  GI50: 3770 nM
  TGI: 7600 nM
T-47D breast
  GI50: 327 nM
  TGI: 20000 nM
TK-10 renal
  GI50: 239 nM
  TGI: 601 nM
UACC-257 melanoma
  GI50: 167 nM
  TGI: 403 nM
UACC-62 melanoma
  GI50: 46.6 nM
  TGI: 291 nM
UO-31 renal
  GI50: 52.7 nM
  TGI: 276 nM
